# Test results reported in the supplement of paper PMC12024424.
# This is a selection; strong and weak results do not stand in their true shares.
# System: Staphylococcus aureus Sa2 (MRSA, cystic fibrosis isolate)
# Assay: growth reduction vs untreated control (viable cell count); higher = stronger antibacterial activity; extreme values may be limits of the assay
# Details: 0.1 mM; 24 h
# Method: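 Single-dose screen of the MedChem Express Drug Repurposing Library (0.1 mM, 1% DMSO) against planktonic MRSA S. aureus Sa2 (CF isolate) in TSB in 96-well plates, 37 °C aerobic, 24 h. Growth reduction is relative to the untreated inoculated control: OD550 of supernatant (blank-subtracted) and confirmation by viable CFU count. Assays were run in triplicate and repeated twice.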
row,SMILES,growth reduction
1,COc1cc(Br)c(C[N+]2(CCOCCC3CCC4CC3C4(C)C)CCOCC2)cc1OC (stereo unspecified) [Pinaverium bromide],100%
